# Assay results taken from PubChem BioAssay AID1347071 (National Center for Advancing Translational Sciences (NCATS), 2019).
# This is a selection; strong and weak results do not stand in their true shares. Active and inactive are the calls of the source. Calls follow the shape of the dose curve; as a rule, active = well fitted activation curve with a large enough effect; inconclusive = small, poorly fitted or top-dose-only effect; inactive = no such curve, though single readings can be large or run the other way.
# Experiment: qHTS for compounds that reverse cellular toxicity of Amyloid beta (A-beta) peptide in yeast: Primary Screen; also: nearly all actives have a fitted effect of over 55% in size
# Settings: yeast expressing A-beta42, growth rescue, OD600, 48 h, 0% DMSO, 100% iron-clioquinol control; at 46.1 µM (top of the series)
# Source text: The A-beta peptide is produced by the processing of the amyloid precursor protein (APP) by two proteases, beta and gamma secretases. […] A-beta42 is regarded as the most amyloidogenic form due to its hydrophobicity; however, precisely how A-beta42 induces neurotoxicity is unclear. To understand further this biology and its potential therapeutic implications for human neurodegenerative disease, a quantitative high-throughput screen for compounds that reverse the cellular toxicity of the A-beta peptide was developed. A yeast based screen was used because it recapitulates the salient feature of protein mis-folding disorder accurately. This cell-based phenotypic screen provides a significant, unbiased advantage by letting the compounds and models inform us which proteins or pathways are most relevant. The ideal chemical candidates would therefore have activity in both our primary yeast and secondary neuronal toxicity assays, as well as in mouse models. They will be valuable tools for dissecting diverse protein homeostasis pathologies and could potentially become the focus for future pre-clinical development. For this luminescence assay, inhibition of A-beta rescues the toxic effect in the yeast cell, resulting in increase of signals and the desired phenotype of "Activator". This screen is run against the Molecular Libraries Small Molecule Repository (MLSMR) and the NCGC Sytravon Library Collection.
# NIH Chemical Genomics Center [NCGC]
# NIH Molecular Libraries Probe Centers Network [MLPCN]
# Assay Submitter (PI): Susan Lindquist, Whitehead Institute, Massachusetts Institute of Technology
# [1] Vassar R,et al (1999). Beta-secretase cleavage of Alzheimer's amyloid precursor protein by the transmembrane aspartic protease BACE. Science. 286: 735-741.
# [2] Yan R, et al (1999). Membrane-anchored aspartyl protease with Alzheimer's disease beta-secretase activity. Nature. 402: 533-536.
# Two and a half microliter / well of yeast growth medium were dispensed in a 1536 assay plate. Compounds were pinned using the Kalypsys robotic system followed by addition of 2.5 uL / well yeast solution. The assay plates were incubated at 30 C. After 48 hr, the absorbance signal at 600 nm was obtained using the PerkinElmer ViewLux plate reader to assess yeast growth. The data was normalized to the positive control of an equimolar mixture of ferric chloride (FeCl3) and clioquinol and to the negative control DMSO.
row,SMILES,growth rescue
1,O=P(Nc1ccccn1)(c1cccc2ccccc12)c1cccc2ccccc12,inactive: 10%
2,Cc1cc(SC(NC=O)C(Cl)(Cl)Cl)ncn1 (stereo not given),inactive: -17.5%
3,O=[N+]([O-])c1ccc(-c2cc([N+](=O)[O-])c(O)c([N+](=O)[O-])c2)cc1,inactive: -30.7%
4,COc1cc(C(=O)NCC2(N3CCOCC3)CCCCC2)ccc1OCC(C)C,inactive: 9.83%
5,C[As](=O)(O)c1cccc(C(=O)O)c1,inactive: 5.63%
6,O=[As](O)(c1ccc(O)cc1)c1ccccc1O,inactive: -4.24%
7,Cc1ccc2nc3c(c(C)c2c1)CC(C(Cl)Cl)S3 (stereo not given),inactive: -30.8%
8,[N-]=[N+]=NC1CCCCC1NC(=O)c1cc([N+](=O)[O-])cc([N+](=O)[O-])c1 (stereo not given),inactive: -9.1%
9,Cc1ccc(OP(=O)(Nc2ccc([N+](=O)[O-])cn2)Oc2ccc(C)cc2)cc1,inactive: -18.9%
10,COC(=O)C1(C)COP(=O)(N2CCCCCC2)OC1 (stereo not given),inactive: 6.83%
11,CC(C)c1ccc(OP(=O)(Nc2ccccn2)Oc2ccccc2F)cc1 (stereo not given),inactive: 24.1%
12,ClCCSc1nnc(-c2cccnc2)o1,inactive: 2.97%
13,O=[N+]([O-])c1cc([N+](=O)[O-])c(-c2ccn[nH]2)s1,inactive: -61.8%
14,CC(C)NC(=O)NP(=O)(Oc1ccccc1)Oc1ccccc1,inactive: -7.71%
15,CCN(CC)C(=S)SC(NC=O)C(Cl)(Cl)Cl (stereo not given),inactive: 18.2%
16,O=C(OC1CN2CCC1CC2)c1cccc2[nH]cnc12 (stereo not given),inactive: 19.9%
17,Cc1cc(=O)[nH]c(N[N+](=O)[O-])n1,inactive: 1.86%
18,O=C(OC1CN2CCC1CC2)C12CC3CC(CC(C3)C1)C2 (stereo not given),inactive: -4.54%
19,Cc1c2c(nc3ccccc13)SC(C(Cl)Cl)C2 (stereo not given),inactive: -33.8%
20,COc1cc(I)ccc1[As](=O)(O)O,inactive: -4.03%
21,COc1ccc2nc(NP(=O)(c3ccccc3)c3ccccc3)sc2c1,inactive: -2.47%
22,O=P1(N(CCCl)CCCl)Nc2ccccc2N1,inactive: -23.5%

row,SMILES,growth rescue
1,COc1ccc(N/C(=N/P(=O)(N2CCOCC2)N2CCOCC2)N2CCOCC2)cc1,inactive: -6.27%
2,O=[N+]([O-])c1cc(Oc2ccc([N+](=O)[O-])cc2C(F)(F)F)cc([N+](=O)[O-])c1,inactive: 5.11%
3,NC(=O)c1cc([N+](=O)[O-])cc([N+](=O)[O-])c1N,inactive: 3.57%
4,Cc1ccc(N/C(=N/P(=O)(N2CCOCC2)N2CCOCC2)N2CCOCC2)cc1,inactive: -17.3%
5,CN(C(=O)Cc1ccc(Cl)c(Cl)c1)[C@H]1CCCC[C@H]1N1CCCC1,inactive: -25.9%
6,Cc1ccc(OP(=O)(Nc2nccs2)Oc2ccc(C)cc2)cc1,inactive: 1.12%
7,COc1ccccc1OP(=O)(Nc1ccc(C)cn1)Oc1ccccc1OC,inactive: -7.09%
8,CN1CCCC(OC(=O)C(c2ccccc2)c2ccccc2)C1 (stereo not given),inactive: -13.3%
9,Clc1ccc(Cl)c(NC2=NCC(CBr)S2)c1 (stereo not given),inactive: 3.88%
10,Nc1cc(N)c2nonc2c1[N+](=O)[O-],inactive: 0.689%
11,CC(C)CC(=O)NC(Sc1ccc(Cl)cc1)C(Cl)(Cl)Cl (stereo not given),inactive: 20.7%
12,O=C(NC(Sc1ccncn1)C(Cl)(Cl)Cl)c1ccccc1 (stereo not given),inactive: -4.13%
13,Oc1ccccc1CNc1ccccn1,inactive: 10.4%
14,O=[N+]([O-])C1C(O)C(O)C([N+](=O)[O-])C(O)C1O (stereo not given),inactive: -13.4%
15,CCCC1OP(N)(=O)OCC1CC (stereo not given),inactive: 4.02%
16,CC(=O)Nc1ccc([As](=O)(O)O)cc1,inactive: -2.29%
17,O=C(O)c1ccccc1[As](=O)(O)O,inactive: -17.6%
18,O=P(Nc1nc2ccc(Cl)cc2s1)(c1ccccc1)c1ccccc1,inactive: -5.84%
19,CN(C)P(=O)(N(C)C)n1c(Nc2ccccc2)nnc1-c1ccccc1,inactive: -4.22%
20,Cc1ccc(NP(=O)(Oc2ccccc2F)Oc2ccccc2F)nc1,inactive: 10.2%
21,CN(C(=O)Cc1ccc(Cl)c(Cl)c1)[C@H]1CCCC[C@@H]1N1CCCC1,inactive: 1.73%
22,Cc1cc(SC(NC(=O)c2ccc(F)cc2)C(Cl)(Cl)Cl)ncn1 (stereo not given),inactive: -28.4%

row,SMILES,growth rescue
1,CCOP(=O)(Nc1ccccc1)OCC,inactive: -11.9%
2,CCN(N=Nc1nonc1N)c1nonc1N,inactive: 8.76%
3,Nc1cccc2ccc([As](=O)(O)O)cc12,inactive: -9.73%
4,O=P1(N(CCCl)CCCl)OCCCS1 (stereo not given),inactive: -3.4%
5,O=C(Nc1cc([As](=O)(O)O)ccc1O)c1ccccc1,inactive: 6.08%
6,CC(C)(C)C(=O)NC(Sc1ccncn1)C(Cl)(Cl)Cl (stereo not given),inactive: 7.21%
7,O=[N+]([O-])c1ncn(CCn2ncnc2[N+](=O)[O-])n1,inactive: 13%
8,COC(=O)C1(C)COP(=O)(Nc2ccccc2)OC1 (stereo not given),inactive: -7.43%
9,O=[N+]([O-])c1cccc(NC2=NCC(CBr)S2)c1 (stereo not given),inactive: 6.28%
10,O=C(O)CNc1ccc([As](=O)(O)O)cc1,inactive: 10.9%
11,COc1ccc(C2=NCC(CBr)S2)cc1 (stereo not given),inactive: -14.6%
12,O=[N+]([O-])c1cccc2n[nH]nc12,inactive: -10.1%
13,CC(=O)N1C2C3N(C(C)=O)C1C1N(C(C)=O)C(C(N1C(C)=O)N3C(C)=O)N2C(C)=O,inactive: 14.9%
14,CCc1nc2c(n1)c1c(non1O)c1c2no[n+]1[O-],inactive: 15.9%
15,O=[N+]([O-])c1cc([N+](=O)[O-])c(CCNc2ccccc2)c([N+](=O)[O-])c1,inactive: -53.3%
16,Cc1ccc(NP(=O)(Oc2ccccc2)Oc2ccccc2)nc1,inactive: 13.2%
17,Nc1ccc([As](=O)(O)c2ccc(N)cc2)cc1,inactive: -5.43%
18,CCN(/C(=N/P(=O)(N1CCOCC1)N1CCOCC1)N1CCOCC1)c1ccc(OC)cc1,inactive: 0.331%
19,CN(C)C(=O)OCCc1n(C)cc[n+]1C,inactive: 1.41%
20,CC(C)c1nc(Nc2ccccc2)n(P(=O)(N(C)C)N(C)C)n1,inactive: 4.63%
21,CC(C)=N/N=C(\N)N[N+](=O)[O-],inactive: -5.59%
